Our source for the IC50 values is patent US10894788B2, “Inhibitors of cyclin-dependent kinases” (Kinnate Biopharma Inc., priority 2018, dated 2021).

Protein sequences, listed by entry. Tags and fused reporters are not part of them.
UniProt Q9NYV4, whole entry: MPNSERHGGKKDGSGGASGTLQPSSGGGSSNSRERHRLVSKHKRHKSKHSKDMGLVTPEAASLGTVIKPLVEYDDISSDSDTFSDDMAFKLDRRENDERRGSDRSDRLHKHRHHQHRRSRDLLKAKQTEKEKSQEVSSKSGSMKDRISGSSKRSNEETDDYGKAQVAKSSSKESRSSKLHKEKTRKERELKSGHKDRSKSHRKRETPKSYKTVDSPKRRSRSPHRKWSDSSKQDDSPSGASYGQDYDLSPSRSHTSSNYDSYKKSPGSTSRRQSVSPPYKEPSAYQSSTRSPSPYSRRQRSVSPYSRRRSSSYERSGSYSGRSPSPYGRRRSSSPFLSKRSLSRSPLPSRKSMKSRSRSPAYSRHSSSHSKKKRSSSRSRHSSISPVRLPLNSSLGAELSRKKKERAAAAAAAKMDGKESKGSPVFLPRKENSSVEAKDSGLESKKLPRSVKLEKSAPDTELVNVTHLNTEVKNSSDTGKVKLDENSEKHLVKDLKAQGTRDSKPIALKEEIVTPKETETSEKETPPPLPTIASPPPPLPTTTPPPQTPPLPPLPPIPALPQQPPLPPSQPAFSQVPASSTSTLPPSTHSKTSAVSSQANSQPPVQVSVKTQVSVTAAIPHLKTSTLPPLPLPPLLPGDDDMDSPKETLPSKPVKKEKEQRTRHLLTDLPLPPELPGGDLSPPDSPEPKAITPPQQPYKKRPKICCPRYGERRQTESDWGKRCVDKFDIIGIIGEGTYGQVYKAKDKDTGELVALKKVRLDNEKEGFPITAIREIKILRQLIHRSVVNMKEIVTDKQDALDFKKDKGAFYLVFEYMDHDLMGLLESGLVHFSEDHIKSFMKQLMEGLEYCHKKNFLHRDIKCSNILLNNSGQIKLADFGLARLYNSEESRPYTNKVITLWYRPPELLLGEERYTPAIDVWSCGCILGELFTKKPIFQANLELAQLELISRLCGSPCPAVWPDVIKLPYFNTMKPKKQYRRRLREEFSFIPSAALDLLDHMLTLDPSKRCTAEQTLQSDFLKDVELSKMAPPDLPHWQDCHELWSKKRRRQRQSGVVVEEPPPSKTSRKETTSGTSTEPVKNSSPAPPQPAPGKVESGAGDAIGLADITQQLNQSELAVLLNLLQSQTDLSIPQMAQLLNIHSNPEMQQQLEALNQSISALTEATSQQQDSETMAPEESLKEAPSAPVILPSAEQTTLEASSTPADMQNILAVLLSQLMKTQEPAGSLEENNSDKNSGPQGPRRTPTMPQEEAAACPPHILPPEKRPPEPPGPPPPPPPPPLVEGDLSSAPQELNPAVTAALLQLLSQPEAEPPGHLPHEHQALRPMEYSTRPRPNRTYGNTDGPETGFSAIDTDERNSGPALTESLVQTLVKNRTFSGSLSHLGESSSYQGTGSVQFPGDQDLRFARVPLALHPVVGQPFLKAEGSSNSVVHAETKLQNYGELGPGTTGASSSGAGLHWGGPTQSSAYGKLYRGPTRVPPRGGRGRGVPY

By pIC50 is commonly meant the negative decadic logarithm of the IC50, by convention in mol/L. Low readings indicate a large IC50, high ones a small IC50.

pIC50: −log10 of the molar value. Some results are limits rather than exact numbers.

In the test the target is CDK12 wt/CycK (Homo sapiens (Human), UniProt Q9NYV4). In words: Radiometric protein kinase assay (33PanQinase Activity Assay), Assay Condition A (thiol containing conditions). Type of test: biochemical. Particulars: thiol containing conditions (1.2 mM DTT), ATP 0.3 μM. How it is done:
Example 1—Assay Condition A (Thiol Containing Conditions)
Objective: The IC50 profile of test compounds was determined using three protein kinases.
Test compounds: The compounds were provided as pre-weighed powders in vials. The compounds were dissolved to 1×10^−02M by adding DMSO. 100 μl of each of the resulting stock solutions were transferred into column 2 of four 96 well “master plates”.
Prior to testing, the 1×10^−02M stock solutions in column 2 of the master plates were subjected to a serial, semi-logarithmic dilution using 100% DMSO as a solvent. […] Column 1 and 7 were filled with 100% DMSO as controls. Subsequently, 2×10 μl from each well of the serial diluted copy plates were aliquoted with a 96 channel pipettor into two identical sets of “compound dilution plates”.
In the process, 90 μl H2O were added to each well of a set of compound dilution plates. To minimize potential precipitation, the H2O was added to each plate only a few minutes before the transfer of the compound solutions into the assay plates. Each plate was shaken thoroughly, resulting in a “compound dilution plate/10% DMSO”.
For the assays, 5 μl solution from each well of the compound dilution plates/10% DMSO were transferred into the assay plates. The final volume of the assay was 50 μl. All compounds were tested at 10 final assay concentrations in the range from 1×10^−04M to 3×10^−09M, in singlicate. The final DMSO concentration in the reaction cocktails was 1% in all cases.
Recombinant protein kinases: All protein kinases were expressed in Sf9 insect cells or in E. coli as recombinant GST-fusion proteins or His-tagged proteins, either as full-length or enzymatically active fragments. All kinases were produced from human cDNAs and purified by either GSH-affinity chromatography or immobilized metal. Affinity tags were removed from a number of kinases during purification. The purity of the protein kinases was examined by SDS-PAGE/Coomassie staining, the identity was checked by mass spectroscopy.
Protein kinase assay: A radiometric protein kinase assay (^33PanQinase® Activity Assay) was used for measuring the kinase activity of the three protein kinases. All kinase assays were performed in 96-well FlashPlates™ from PerkinElmer (Boston, Mass., USA) in a 50 μl reaction volume. The reaction cocktail was pipetted in four steps in the following order: • 20 μl of assay buffer (standard buffer) • 5 μl of ATP solution (in H2O) • 5 μl of test compound (in 10% DMSO) • 20 μl enzyme/substrate mix
The following amounts of enzyme and substrate were used per well:
The reaction cocktails were incubated at 30° C. for 60 minutes. The reaction was stopped with 50 μl of 2% (v/v) H3PO4, plates were aspirated and washed two times with 200 μl 0.9% (w/v) NaCl. Incorporation of ^33Pi was determined with a microplate scintillation counter (Microbeta, Wallac). All assays were performed with a BeckmanCoulter/SAGIAN™ Core System.
Evaluation of raw data: The median value of the counts in column 1 (n=8) of each assay plate was defined as “low control”. This value reflects unspecific binding of radioactivity to the plate in the absence of a protein kinase but in the presence of the substrate. The median value of the counts in column 7 of each assay plate (n=8) was taken as the “high control”, i.e. full activity in the absence of any inhibitor. The difference between high and low control was taken as 100% activity.
As to `C=CC(=O)Nc1ccc(C(=O)N2CC[C@@H](Nc3ncc(Cl)c(N(C)C)n3)C2)cc1` [Example 86, (R)—N-(4-(3-((5-chloro-4-(dimethylamino)pyrimidin-2-yl)amino)pyrrolidine-1-carbonyl)phenyl)acrylamide], the pIC50 was over 7.00. Consider `CCOc1nc(N[C@@H]2CCN(C(=O)c3ccc(CNC(=O)/C=C/CN(C)C)cc3)C2)ncc1Cl` [Example 121, (R,E)-N-(4-(3-((5-chloro-4-ethoxypyrimidin-2-yl)amino)pyrrolidine-1-carbonyl)benzyl)-4-(dimethylamino)but-2-enamide], for which the pIC50 is 5.00 to 6.00. For `CN(C)C/C=C/C(=O)NCc1ccc(C(=O)N2CC[C@@H](Nc3ncc(Cl)cn3)C2)cc1` [Example 122, (R,E)-N-(4-(3-((5-chloropyrimidin-2-yl)amino)pyrrolidine-1-carbonyl)benzyl)-4-(dimethylamino)but-2-enamide] the value was 4.52 to 5.00; for `CN(C)C/C=C/C(=O)N1CCOc2c(C(=O)N3CC[C@@H](Nc4ncc(Cl)cn4)C3)cccc21` [Example 129, (R,E)-1-(8-(3-((5-chloropyrimidin-2-yl)amino)pyrrolidine-1-carbonyl)-2H-benzo[b][1,4]oxazin-4(3H)-yl)-4-(dimethylamino)but-2-en-1-one], 6.00 to 7.00; for `[2H]c1nc(N[C@@H]2CCN(C(=O)c3ccc(NC(=O)C=C)cc3)C2)nc(N(C)C)c1Cl` [Example 139, (R)—N-(4-(3-((5-chloro-4-(dimethylamino)-6-deuteropyrimidin-2-yl)amino)pyrrolidine-1-carbonyl)phenyl)acrylamide], over 7.00. The compound `COc1nc(N[C@@H]2CCN(C(=O)c3ccc(NC(=O)/C=C/CN(C)C)c(F)c3)C2)ncc1Cl` [Example 145, (R,E)-N-(4-(3-((5-chloro-4-methoxypyrimidin-2-yl)amino)pyrrolidine-1-carbonyl)-2-fluorophenyl)-4-(dimethylamino)but-2-enamide] showed a pIC50 of 6.00 to 7.00. `CN(C)C/C=C/C(=O)N1CCc2ccc(C(=O)N3CC[C@@H](Nc4ncc(Cl)cn4)C3)cc21` [Example 146, (R,E)-1-(6-(3-((5-chloropyrimidin-2-yl)amino)pyrrolidine-1-carbonyl)indolin-1-yl)-4-(dimethylamino)but-2-en-1-one] gave a pIC50 of 5.00 to 6.00.

Regarding `CN(C)C/C=C/C(=O)N1CCc2cc(C(=O)N3CC[C@@H](Nc4ncc(Cl)cn4)C3)ccc2C1` [Example 149, (R,E)-1-(6-(3-((5-chloropyrimidin-2-yl)amino)pyrrolidine-1-carbonyl)-3,4-dihydroisoquinolin-2(1H)-yl)-4-(dimethylamino)but-2-en-1-one], the pIC50 was 5.00 to 6.00. In turn, `C=CC(=O)Nc1ccc(C(=O)N2CC[C@@H](Nc3ncc(Br)cn3)C2)cc1OCCN(C)C` [Example 157, (R)—N-(4-(3-((5-bromopyrimidin-2-yl)amino)pyrrolidine-1-carbonyl)-2-(2-(dimethylamino)ethoxy)phenyl)acrylamide] gave a pIC50 of over 7.00.
